Where two headings read alike, the source gives them in different places.
B1: 6847 (peptide)
chain: APLEPFYPGDNATPEELVHYYSALRRYINMLTRPRY
B2: 6646 (peptide)
chain: GAPLEPVYPGDNATPEQMAQYAADLRRYINMLTRPRY
B3: 6459 (peptide)
chain: APLEPVYPGDNATPEELNRYYASLRHYLNLVTRPRY

Sequences of proteins named here, by UniProt entry; tags and fusion partners are left off. A change or cut given only in a name is not applied to a line headed by its entry.
UniProt P50391: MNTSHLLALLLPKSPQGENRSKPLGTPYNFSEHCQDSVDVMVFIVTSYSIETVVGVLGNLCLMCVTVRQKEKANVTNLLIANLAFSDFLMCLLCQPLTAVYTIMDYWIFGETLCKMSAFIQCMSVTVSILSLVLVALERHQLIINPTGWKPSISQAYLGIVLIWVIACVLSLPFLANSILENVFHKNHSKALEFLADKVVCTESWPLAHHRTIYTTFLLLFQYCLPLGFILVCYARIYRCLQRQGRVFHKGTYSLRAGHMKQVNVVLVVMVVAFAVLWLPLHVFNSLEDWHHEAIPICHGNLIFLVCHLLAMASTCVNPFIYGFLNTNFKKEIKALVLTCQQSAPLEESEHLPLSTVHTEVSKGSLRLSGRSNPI

Tests used:
[1] = target: T1, human Y4 receptor (human, UniProt P50391 1-375); assay: 125I-PP displacement
[2] = target: T1, human Y4 receptor; assay: 125I-PP displacement; remark: listed apart in the source

Binder | IC50 [1] | IC50 [2]
B1 | 0.23 nM | –
B2 | – | 0.23 nM
B3 | – | 0.23 nM

— US20100279930A1 (published 2010)
